Experimental data: patent publication US10799555B2, “PD-1 peptide inhibitors” (Leidos, Inc., priority 2016, dated 2020)

Test system: human PBMCs
Experiment: Tetanus toxoid recall assay using individual peptides
Type: cell-based
Settings: qualitative summary of FIG. 13

| SMILES | IL-17a production |
| --- | --- |
| CSCC[C@H](NC(=O)[C@H](CCCCN)NC(=O)[C@H](Cc1ccccc1)NC(=O)[C@H](Cc1c[nH]cn1)NC(=O)[C@H](Cc1c[nH]cn1)NC(=O)[C@H](Cc1ccc(O)cc1)NC(=O)[C@H](CO)NC(=O)[C@@H](N)CO)C(=O)N1CCC[C@H]1C(=O)N[C@@H](CCC(=O)O)C(=O)N[C@@H](CC(C)C)C(=O)N[C@@H](Cc1c[nH]cn1)C(=O)N[C@@H](Cc1ccccc1)C(=O)NCC(=O)N[C@@H](CCCCN)C(=O)N[C@@H](CC(N)=O)C(=O)N[C@H](C(=O)N[C@@H](Cc1ccccc1)C(=O)N[C@@H](Cc1c[nH]cn1)C(=O)N[C@@H](CCC(N)=O)C(=O)O)[C@@H](C)O [SQ20] | ++ |
| CSCC[C@H](NC(=O)CNC(=O)[C@@H](NC(=O)[C@H](Cc1c[nH]c2ccccc12)NC(=O)[C@H](Cc1c[nH]cn1)NC(=O)[C@H](CO)NC(=O)[C@H](CCCNC(=N)N)NC(=O)[C@@H](NC(=O)[C@H](CCC(N)=O)NC(=O)[C@H](Cc1ccc(O)cc1)NC(=O)[C@@H](NC(=O)[C@H](CCC(N)=O)NC(=O)[C@H](Cc1c[nH]cn1)NC(=O)[C@H](Cc1c[nH]cn1)NC(=O)[C@@H](N)Cc1c[nH]cn1)C(C)C)C(C)C)[C@@H](C)O)C(=O)N[C@@H](Cc1c[nH]cn1)C(=O)N[C@@H](CO)C(=O)NCC(=O)N[C@@H](Cc1c[nH]cn1)C(=O)N[C@@H](CC(=O)O)C(=O)O [HD20] | ++ |
| CC[C@H](C)[C@H](NC(=O)[C@H](Cc1c[nH]c2ccccc12)NC(=O)[C@H](CCC(=O)O)NC(=O)[C@H](Cc1c[nH]cn1)NC(=O)[C@H](CCC(=O)O)NC(=O)[C@H](Cc1c[nH]cn1)NC(=O)[C@@H]1CCCN1C(=O)[C@H](CCCNC(=N)N)NC(=O)[C@@H](NC(=O)[C@H](Cc1c[nH]cn1)NC(=O)[C@H](Cc1c[nH]cn1)NC(=O)[C@H](CC(N)=O)NC(=O)[C@H](Cc1c[nH]cn1)NC(=O)[C@H](Cc1ccccc1)NC(=O)[C@H](CO)NC(=O)[C@H](C)NC(=O)[C@@H]1CCCN1C(=O)[C@H](CC(C)C)NC(=O)[C@H](CC(N)=O)NC(=O)[C@@H](N)Cc1c[nH]c2ccccc12)[C@@H](C)CC)C(=O)N[C@@H](CCC(N)=O)C(=O)O [WQ20] | ++ |
| CC[C@H](C)[C@H](NC(=O)[C@H](CCCCN)NC(=O)[C@@H]1CCCN1C(=O)[C@H](CCSC)NC(=O)[C@@H]1CCCN1C(=O)[C@@H](NC(=O)[C@@H](NC(=O)[C@H](CCCNC(=N)N)NC(=O)[C@@H](NC(=O)[C@@H](N)CCC(N)=O)[C@@H](C)O)[C@@H](C)O)C(C)C)C(=O)N[C@@H](Cc1c[nH]cn1)C(=O)N[C@@H](Cc1c[nH]cn1)C(=O)N1CCC[C@H]1C(=O)N1CCC[C@H]1C(=O)N[C@@H](Cc1c[nH]c2ccccc12)C(=O)N[C@@H](CCC(N)=O)C(=O)N[C@@H](CC(N)=O)C(=O)N[C@H](C(=O)N[C@H](C(=O)N1CCC[C@H]1C(=O)O)C(C)C)C(C)C [QP20] | x |
